FGF22 binding – shifts melting point of recombinant human FGF22; Q9HCT0; recombinant FGF22 thermal shift, SYPRO orange fluorescence; percent of sucrose octasulfate shift, DMSO zero; activity (Tm shift, normalised), % at 9.99 µM; actives 1.5% (n = 340,000);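 active = mean Tm shift, scaled 0 neutral to 100 positive control, at about 1.3% or above, every replicate too, limit read from the data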
Yeast UUG start – modulators of start codon recognition fidelity in yeast | S. cerevisiae UUG-firefly luciferase reporter, luminescence/redox ratio | activity score, % at 18.7 µM | 350,000 tested, 0.13% active;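 active = replicate mean at a twofold rise or more, about +100% in these data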;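 also: firefly luciferase made from a UUG start codon reports start codon fidelity; reporter light over untreated wells divided by growth signal over untreated wells; some hits fall short of that in this replicate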
PDI inh – blocks human protein disulfide isomerase activity; P07237; PDI insulin aggregation turbidity, A650, 90 min; inhibition, % at 10 µM; actives 0.052% (n = 350,000); AID 588391;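 active = mean inhibition across replicates of 30% or more, whatever share of single replicates reach that level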
S100A4 inh HTS – S100A4-myosin IIA interaction inhibition; S100A4/TAMRA-MyoIIA peptide fluorescence polarization; inhibition, % at 10.7 µM; actives 0.14% (n = 360,000); AID 652163;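 active = mean inhibition of at least 70% across replicates, with every replicate also reaching that level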
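assay system = human S100A4 monomer with TAMRA-labelled myosin IIA peptide | also added = labelled myosin peptide probe, 5 nM | incubation = 5 min between mix addition and reading | control set = DMSO and TFP controls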
ERp5 block – inhibitors of human ERp5 | inhibition, % at 9.99 µM | actives 0.05% (n = 350,000) | Q15084 | ERp5 insulin aggregation, absorbance 650 nm, 90 min;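 active = mean replicate inhibition above about 25%, with every replicate also reaching it, limit read from the data, passing the limit was not always enough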
SIRT5 block – sirtuin-5 (human) deacylase inhibition | Q9NXA8 | actives 1.1% (n = 330,000) | Purified SirT5, succinyl-peptide AMC, trypsin-coupled fluorescence | AID 652115 | inhibition, % at 15 µM; in the data active = inhibition above about 15%
An asterisk follows results filed as active; nt = no result. Most compounds without a hit are left out; they make up all but 2.2% or so of the library.

SMILES | FGF22 binding | Yeast UUG start | PDI inh | S100A4 inh HTS | ERp5 block | SIRT5 block
COc1ccc(C(=O)N/C(=C\c2cn(C)c3ccccc23)C(=O)OCCN(C)C)cc1 | 27.9* | nt | 4.6 | -1.5 | 0.6 | 3.5
O=C(Nc1nnc(Cc2ccc(Cl)cc2)s1)C1CCCO1 (stereo unspecified) | 43.3* | nt | -1.2 | 2.3 | -8.6 | -4.0
COC(=O)c1cc(S(=O)(=O)NCc2ccc(Br)cc2)c[nH]1 | -0.2 | -23.5 | -5.2 | -6.5 | -1.1 | 21.8*
C=CCNC(=O)COC(=O)COc1ccc(Cl)cc1C | nt | -10.7 | 10.0 | -5.3 | 19.1 | 16.9*
C[C@@H]1CN([C@@H](C)CO)S(=O)(=O)c2ccc(/C=C/c3ccccc3)cc2O[C@@H]1CN(C)C(=O)C1CC1 | -0.8 | 0.0 | nt | -6.4 | 2.1 | 16.7*
C[C@H]1CN([C@@H](C)CO)S(=O)(=O)c2ccc(/C=C/c3ccccc3)cc2O[C@H]1CN(C)C(=O)C1CC1 | -0.4 | 17.1 | nt | -10.2 | 0.9 | 15.1*
COc1ccccc1CNC(=O)C[C@H]1CC[C@@H]2[C@H](COc3ccc(NC(=O)Nc4ccc(F)c(F)c4)cc3C(=O)N2C)O1 | 0.5 | -5.3 | nt | 11.1 | nt | -3.1
CO[C@@H]1CN(C)C(=O)c2ccc(NC(=O)Nc3cccc(Cl)c3)cc2OC[C@H](C)N(C(=O)Nc2c(C)noc2C)C[C@H]1C | -0.3 | nt | nt | 2.3 | -0.1 | 3.8
CN(C)/C=C/C(=O)c1cnc(-c2ccc(Cl)cc2)s1 | 0.0 | -0.6 | -2.6 | 1.5 | -6.6 | 5.0
CN(C)/C=C/C(=O)c1ccc(Cl)s1 | 44.7* | nt | 10.4 | 1.4 | 1.1 | -3.4
Cc1ccccc1-c1nnc(-c2ccccc2C)o1 | nt | -8.9 | 0.4 | nt | nt | nt
Cc1ccccc1-c1ccccc1N | 44.2* | -4.9 | 1.2 | -5.5 | 1.1 | 0.1
O=C(NCc1ccc(F)cc1)c1cccnc1C(=O)O | 0.2 | 6.5 | -1.3 | 0.3 | 2.0 | 23.3*
O=C(NCc1cccs1)c1cccnc1C(=O)O | nt | nt | -5.7 | nt | nt | nt
Cc1ccc(S(=O)(=O)Nc2ccc3cn[nH]c3c2)cc1C | 43.7* | -1.6 | -5.2 | 1.6 | 5.7 | nt

The closing two compounds of the part before are carried over, then new ones follow:
SMILES | FGF22 binding | Yeast UUG start | PDI inh | S100A4 inh HTS | ERp5 block | SIRT5 block
O=C(NCc1cccs1)c1cccnc1C(=O)O | nt | nt | -5.7 | nt | nt | nt
Cc1ccc(S(=O)(=O)Nc2ccc3cn[nH]c3c2)cc1C | 43.7* | -1.6 | -5.2 | 1.6 | 5.7 | nt
COc1cc(S(=O)(=O)Nc2ccc3cn[nH]c3c2)ccc1Cl | 44.0* | nt | 10.1 | 4.6 | 0.2 | 2.0
Cc1ccc(S(=O)(=O)Nc2ccc3cn[nH]c3c2)cc1 | 0.0 | -13.6 | 4.9 | -3.4 | -4.4 | -0.9
COc1cc(OC)c(CNS(=O)(=O)c2ccc(Br)cc2)c(OC)c1 | -0.5 | nt | nt | 5.6 | 0.8 | 2.7
COc1ccc(-c2nc3ccccc3nc2-c2ccccc2)cc1OC | 0.0 | 13.0 | 5.0 | 4.2 | 2.8 | 16.9*
O=C(O)CN1CCc2ccccc2C1 | 43.1* | -1.8 | -4.2 | -3.6 | 4.3 | -2.5
O=C(CN1CCc2ccccc2C1)Nc1ccc(F)cc1F | 43.5* | -5.0 | -2.3 | 9.4 | -2.2 | -0.3
C[C@H]1CN([C@@H](C)CO)S(=O)(=O)c2ccc(-c3ccncc3)cc2O[C@H]1CN(C)Cc1ccncc1 | nt | -19.5 | nt | nt | nt | nt
CN1[C@H](C(=O)NC2CCCC2)[C@@H](CO)[C@@H]2Cn3c(ccc(/C=C/c4ccccc4)c3=O)[C@@H]21 | nt | nt | nt | -15.5 | -4.8 | -50.5
O=C(O)c1cccc(NC2=C(Cl)C(=O)c3ccccc3C2=O)c1 | -0.1 | -10.9 | 6.6 | 0.8 | 3.3 | 112.0*
COC(=O)c1c(CC[C@@H](CO)NC(=O)N[C@H](Cn2cc(-c3cncn3C)nn2)C(C)C)oc(C(C)=O)c1C(=O)OC | 1.6* | nt | nt | 0.4 | -1.3 | 1.7
CN(C)CC(=O)Nc1ccc2c(c1)[C@H]1C[C@H](CC(=O)NC3CCCC3)O[C@H](CO)[C@H]1O2 | -0.2 | 4.6 | nt | 10.7 | -3.7 | -2.9
COc1ccccc1C#Cc1ccc2c(c1)[C@H]1[C@H](CCN1C(=O)c1ccc(F)cc1)[C@@H](CO)N2 | nt | nt | nt | -0.2 | 0.8 | 17.6*
CN(C)C(=O)c1cccc(-c2ccc3c(c2)[C@H]2[C@H](CCN2C(=O)C2CC2)[C@@H](CO)N3)c1 | -0.5 | 29.4 | nt | 78.3* | -2.1 | 5.8
COc1ccccc1C#Cc1ccc2c(c1)[C@H]1[C@H](CCN1C(=O)c1ccccc1)[C@H](CO)N2 | -0.1 | -8.9 | nt | -15.9 | -0.7 | 4.9
O=C(c1cccc(F)c1)N1CC[C@H]2[C@H](CO)Nc3ccc(-c4ccc(F)cc4)cc3[C@H]21 | -0.7 | 9.2 | nt | 102.0* | -2.2 | 7.7

3 entries out of the list above, sorted by their value in S100A4 inh HTS, largest number first:
Compound,Yeast UUG start,PDI inh,S100A4 inh HTS,ERp5 block,SIRT5 block
O=C(CN1CCc2ccccc2C1)Nc1ccc(F)cc1F,-5.0,-2.3,9.4,-2.2,-0.3
COC(=O)c1c(CC[C@@H](CO)NC(=O)N[C@H](Cn2cc(-c3cncn3C)nn2)C(C)C)oc(C(C)=O)c1C(=O)OC,nt,nt,0.4,-1.3,1.7
CN1[C@H](C(=O)NC2CCCC2)[C@@H](CO)[C@@H]2Cn3c(ccc(/C=C/c4ccccc4)c3=O)[C@@H]21,nt,nt,-15.5,-4.8,-50.5
